# Measured affinities in a library of Ab-91 heavy chain variants

Data: MIT Lincoln Laboratory AlphaSeq set, Engelhart et al. 2022, doi:10.1038/s41597-022-01779-4, as distributed in FLAb.

Target: peptide PDVDLGDISGINAS, taken from heptad repeat 2 (HR2) of SARS-CoV-2 spike.

Parent scFv Ab-91: VL joined to VH by three GGGGS repeats. Changes lie in the heavy chain CDRs alone.
VL: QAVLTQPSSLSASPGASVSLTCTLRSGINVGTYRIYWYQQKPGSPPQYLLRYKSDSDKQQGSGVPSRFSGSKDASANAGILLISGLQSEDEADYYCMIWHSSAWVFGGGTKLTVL
VH: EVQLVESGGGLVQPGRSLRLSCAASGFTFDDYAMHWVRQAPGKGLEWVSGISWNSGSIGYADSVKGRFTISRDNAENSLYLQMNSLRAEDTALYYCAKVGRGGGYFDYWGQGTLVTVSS

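The starting antibody came from a phage panning campaign against this peptide. Library AAYL51 holds single substitutions and randomly drawn double and triple substitutions in the CDRs. AlphaSeq pools MATa yeast showing the antibodies with MATalpha yeast showing the peptide. Mating (16 h, 30 °C) was followed by selection of diploids and sequencing of their barcodes. A regression on co-assayed BCL2-family reference pairs converts the normalised counts of each replicate to an apparent Kd. Each pool was mated in three replicate cultures.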

Each variant is given by its three heavy chain CDRs, as the data file delimits them; those of the parent are GFTFDDYAMH, GISWNSGSIGYADSVK, VGRGGGYFDY. The read-out is the apparent dissociation constant on a log10 scale (nM): the lower, the stronger. The mean shown is taken over the replicates in which the pair was detected. A pair that was not seen in any replicate is written "no signal"; this usually means weak binding, but a binder can also be missed. In this assay the parent's reference entry averaged 1.86; its copy inside this library read 0.88. Empty control strains, which show no peptide, gave a signal in 21% of pairings with library AAYL51; the median was 4.54 and 95% of these signals were weaker than 3.26. No background was subtracted.

CDR-H1	CDR-H2	CDR-H3	mean, log10 nM	seen in
GETFDDYAAH	GISWNSGSIGYADSVK	QGRGGGYFDY	5.25	3 of 3
GFTFDDYAMH	GISWYSGSINYADSVK	VGRGTGYFDY	4.28	2 of 3
GFTFDDYAMH	GIDWNSRSYGYADSVK	VGRGGGYFDY	4.24	2 of 3
GFTFDDYAMH	GISWNSGRIGYADSGK	VGRCGGYFDY	5.10	1 of 3
GFTFDDYAEH	GISWNSGSDGYADSVK	VGREGGYFDY	5.02	2 of 3
GFTFDDYAMH	GICVNSLSIGYADSVK	VGRGGGYFDY	no signal	0 of 3
GFTFDDYAMH	GISWNSTSIGYADSGK	VGRYGGYFDY	no signal	0 of 3
GFTFDDYAMH	GISWNSGSIGYADSVK	VMRHGGYFDV	5.83	1 of 3
GFTLDDYAMH	GISWNSGSIGYYDSVK	VGWGGGYFDY	no signal	0 of 3
SFTFLDYAMH	GISWNSGSIGYADSVK	VGRGGGYFAY	no signal	0 of 3
GFTFDDCAIH	GISWNSGSFGYADSVK	VGRGGGYFDY	4.85	3 of 3
GFTYDDHAMH	GISWNSGSIGYADSVK	VGRGGGYQDY	4.48	3 of 3
GFTFDDYAMH	GISWNSGSIMYKDSVK	VGRQGGYFDY	no signal	0 of 3
GFTFDDYAAH	GISWNSGSIGYADSVK	VGRGEGYFDY	3.13	1 of 3
GFTFDDYCMH	GPSMNSGSIGYADSVK	VGRGGGYFDY	no signal	0 of 3
GFTFDDYAMH	GISWNSGSIGYARSVE	VGRGGGYFDY	0.57	3 of 3
GRTFDDYAMH	GISTNSGSIGYADSVK	VGRGGGYFDY	3.83	1 of 3
GFVFDDYAMH	YISWNSGSIGYADSVR	VGRGGGYFDY	no signal	0 of 3
GFTTDDYAMH	GISWNSISIGYAESVK	VGRGGGYFDY	3.63	3 of 3
GFTFYDYAMH	SISWNSGAIGYADSVK	VGRGGGYFDY	5.52	3 of 3
GFTFDDYAMH	GISWNSGSIRYADSVK	VQRGGGYFDY	no signal	0 of 3
GFCFDWYAMH	GISWNSYSIGYADSVK	VGRGGGYFDY	no signal	0 of 3
GFTFDDYARH	GISWNSGSIFYADSVK	VGRGGGYFKY	no signal	0 of 3
GFTRDDYAMH	GISWNSGSIGDADSVK	VGRGGGYDDY	5.71	2 of 3
GFTFDDYASH	GISWNSGSIGYADSVK	VGRGCGYFDQ	no signal	0 of 3
GFTFDDYAIH	GISWNSGSIGYADSVK	VGRGGGYADY	4.36	1 of 3
GFTFDDYAMA	GISWNSGSIGHADSVK	VGRGGGYFDG	no signal	0 of 3
GFTCDDYAMH	GISWNSGSIGYADSVK	LGRGGIYFDY	3.84	1 of 3
GNTFDDYAMH	GIYWNSGSIGYADSVK	VGVGGGYFDY	3.74	1 of 3
GFTFDDYAMH	GESWNSGSIGNADSVK	VGRGGGYFEY	no signal	0 of 3
GFTFDDCAMH	GIIWNSGSIGYADSVK	VNRGGGYFDY	5.40	2 of 3
GFTFDDYAEH	GISWNSGSIGYAGSVK	VYRGGGYFDY	4.26	1 of 3
MFTFDDYAMH	GISWNSGAIGYADSVG	VGRGGGYFDY	no signal	0 of 3
GFSFDDYAMH	GISWNSLSIGYAQSVK	VGRGGGYFDY	1.82	3 of 3
GFTFDDYAAH	GISWNSGSIGYADSVK	VARGGGSFDY	4.53	1 of 3
GFTFDDYWMH	GISWNSGSIGGADSVK	VGRGGGYFEY	4.31	2 of 3
GFTFDDYAMF	GISWNSGSIGRADSVK	VGRGGGYFDR	4.34	2 of 3
GFTFDDYRMK	GISWNSGSIGYADSVK	VGRGGGYFDY	6.00	3 of 3
GFTFDDYAMH	GISWNSGSIRYADSPK	VGRGGGRFDY	no signal	0 of 3
GWTIDDYAMH	GISWNSGSIGYADLVK	VGRGGGYFDY	3.71	3 of 3
GFTFDDYAMH	GISWNSGSIGYADEVK	VCRGGGYFDE	4.44	1 of 3
GFTFDDYAMH	IISHNSGSIGYADHVK	VGRGGGYFDY	5.16	3 of 3
GFTFDDYAMH	GHWWNSGSIGYADSVK	VGRGGSYFDY	5.34	2 of 3
GFTFDDNAMH	GISWNSGSIGYADSVK	VGNGGHYFDY	4.57	3 of 3
GFTFDDYAEH	GESWNSGSIGYKDSVK	VGRGGGYFDY	5.10	2 of 3
GFTFDDYAMH	GISWNSGSIYYADSVK	VGRGVGWFDY	3.73	1 of 3
GFTFKDYAMH	GISANSSSIGYADSVK	VGRGGGYFDY	2.24	3 of 3
GFTFDDYAMH	GKSMNSGSIGYADSVK	VGRGGGYFDY	5.78	1 of 3
GFTFDDYAMH	GISWNSGSICYAFSVK	VGRGGGYFDN	no signal	0 of 3
GFTFFDYGMH	GISWNSGSIGYADSVK	VQRGGGYFDY	no signal	0 of 3
GFTFDDYAMH	TISWNSGSIGYAPSVK	VGRGPGYFDY	3.64	1 of 3
GFTFTDYAQH	GISWNSGSIGVADSVK	VGRGGGYFDY	4.76	3 of 3
GFTLDDYAMH	GISWNSGSDGIADSVK	VGRGGGYFDY	no signal	0 of 3
GYCFDDYAMH	GISWNSHSIGYADSVK	VGRGGGYFDY	2.59	1 of 3
GFTFDDYAMH	GISWNSGSIGIADFVK	VGRGGGYQDY	no signal	0 of 3
KFTFADYAMH	GISWNSGSIGHADSVK	VGRGGGYFDY	no signal	0 of 3
YFTFDDYAMH	GISWNSGSIAYALSVK	VGRGGGYFDY	no signal	0 of 3
GFTFDDYAMH	GISWNSGSIGYADSYK	VGRGKGYFDY	1.93	3 of 3
GKTFDDNAMH	GISWNSGSIGYADSVK	VGRHGGYFDY	no signal	0 of 3
GFTFDDYAMY	VISWNSGSIGYADSVK	VGRGGIYFDY	4.04	1 of 3
GFTFDDYAMH	GISWNSGSPEYAYSVK	VGRGGGYFDY	no signal	0 of 3
GFSFCDYAMH	GISWNSGSIGYADSVK	VGRKGGYFDY	4.25	1 of 3
GFTFDDYAMH	GISWNSGSIGCADSVK	VSRGGGMFDY	5.43	3 of 3
GFTFDDYASH	GISWNSMSIGYADSVK	VGRGGGYFDS	5.54	2 of 3
GFTFDDYAML	GISWNSGSIGYADSVK	VGRGGGYCGY	4.86	3 of 3
GFTFDDYAMH	GVSWNSGSIGYADSVK	VKRGGGYFDY	no signal	0 of 3
GTTFDDYAMH	GISWNSGSIGYAHSVK	VGRGGGYFDY	3.74	2 of 3
GFTFDDYAMH	GHSWNSGSIGYADSVK	VGRGGGYFDK	5.66	2 of 3